The text below walks through data of US20210228523A1, “MODULATORS OF SESTRIN-GATOR2 INTERACTION AND USES THEREOF” (Navitor Pharmaceuticals, Inc., priority 2017, published 2021).

The assay deals with mTORC1. Nature of the assay: Western blot of pS6 in rat brain and selected peripheral organs. The assay is classed as in vivo. As to conditions: Example D; Leu 500 mg/kg oral; 1 hr post-dose. How it is done: Study Design: Thirty (30) male rats weighing between 175 and 200 g were randomized into 3 study groups (n=10), following a 5-day acclimation period. One hour following dosing rats were sacrificed by conscious decapitation, plasma, brain and selected peripheral tissues were harvested for compound level and WB analysis. Tissues were prepared for WB to quantitate the mTORC1 substrate pS6 as a measure of mTORC1 activity.
Preparation of Test Articles: NV-5138 (Navitor, Lot #12) and Leucine (Leu, Sigma; #L8912) were prepared by dissolving in Veh (0.5% methylcellulose/0.1% Tween-80) at a concentration of 16 mg/mL and 100 mg/mL, respectively. The dosing volume based on the weight of the animal (10 mL/kg) was administered by oral gavage. Test articles were prepared the day of dosing.
Tissues Preparations: One hour following dosing rats were sacrificed by conscious decapitation, plasma, brain and peripheral tissues were harvested and immediately frozen in liquid nitrogen. Tissues were thawed and homogenized for 1 min twice using MP homogenizer in Lysis Buffer (Cell lysis buffer: 1% Triton X-100, 50 mM HEPES pH 7.4, 100 mM NaCl, 2 mM EDTA, 10 mM Beta-glycerophosphate, 10 mM Sodium pyrophosphate, and 1 protease inhibitor tab per 50 mL fresh) at 4° C. Lysates were then sonicated on ice for 20 s at 50% amplitude. The protein concentration was determined by Bradford assay and all samples were mixed with loading buffer (50 mM Tris-HCl pH 6.8, 2% SDS, 5% glycerol, 5% β-mercaptoethanol and 0.01% Bromophenol blue) and stored at −20° C. until WB analysis.
Western Blot (WB) Analysis. Equal amounts of each sample (15 μg of total protein) were loaded and separated on NuPAGE 4-12% Bis-Tris gels and transferred to PVDF membrane (Immobilon-FL PVDF membrane, Millipore) using CAPS Buffer (10 mM 3-(Cyclohexylamino)-1-propanesulfonic acid, 12.5% Ethanol pH=10). After transfer, membranes were incubated for 1 hr at room temperature in Odyssey blocking buffer (Licor). After blocking, membranes were incubated at 4° C. overnight with primary antibodies. Primary antibodies used were rabbit anti-[…] (cell signaling; #5364) at 1:1000, mouse anti-GAPDH (Sigma; #G8795) at 1:1000 and mouse anti-a-tubulin (Sigma; #T5168) at 1:10000 in Odyssey blocking buffer. The next day, membranes were washed three times in 1×TBS-Tween (25 mM Tris, pH 7.4, 3.0 mM KCl, 140 mM NaCl and 0.05% Tween-20) and incubated with dye-coupled secondary antibodies (goat anti-mouse IRdye680, and goat anti-rabbit IRdye800 from LI-COR) at 1:20000 in Odyssey blocking buffer for 30 min then wash three times in IX TBS-Tween. Signals were quantified using the Odyssey Infrared Imaging System (LI-COR Bioscience). The resulting densitometric readings were used to generate a ratio of phopho-protein to a-tubulin or GAPDH. The resulting ratio was further normalized to vehicle treated control group.
A general note: A western blot detects proteins with antibodies after separation by electrophoresis.

With `CC(C)C[C@H](N)C(=O)O` [Leu, Leucine, reference compound], the “level of pS6 in rat epididymal fat” value was “significantly increased”, the “level of pS6 in rat heart” value was “significantly increased”, the “level of pS6 in rat kidney” value was “significantly increased” and the “level of pS6 in rat tibialis anterior” value is recorded as “significantly increased”. The “pS6 levels in liver” value is recorded as “significant increase” and the “pS6 levels in testes” value is on record as “significant increase”.
